Target: JNK1 (Homo sapiens, UniProt P45983)
Assay: JNK1 biochemical assays (one or more of: time resolved fluorescence, Z'-LYTE Cascade, radioactive)
Conditions: read-out: Act. Level; Table 2; JNK1 IC50 activity level

By UniProt entry, the sequences of proteins in these tests, tags left out.
UniProt P45983, whole entry: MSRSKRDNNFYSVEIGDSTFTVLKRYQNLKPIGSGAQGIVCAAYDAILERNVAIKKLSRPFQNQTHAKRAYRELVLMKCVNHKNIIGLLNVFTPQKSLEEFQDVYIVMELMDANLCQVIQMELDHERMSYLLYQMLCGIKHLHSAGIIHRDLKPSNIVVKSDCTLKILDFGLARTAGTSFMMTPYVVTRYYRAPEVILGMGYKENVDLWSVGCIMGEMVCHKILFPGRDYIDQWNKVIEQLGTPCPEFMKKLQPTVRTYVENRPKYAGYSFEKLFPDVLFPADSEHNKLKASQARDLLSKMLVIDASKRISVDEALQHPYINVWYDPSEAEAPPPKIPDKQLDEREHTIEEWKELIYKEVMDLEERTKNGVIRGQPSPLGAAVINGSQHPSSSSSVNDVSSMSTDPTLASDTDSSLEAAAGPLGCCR

IC50 [nM] | Compound
200 to 800 | NC(=O)c1cnc(Nc2cccc3c2CCCC3)nc1Nc1ccccc1
< 200 | CC1(C)CCC(Nc2ncc(C(N)=O)c(N[C@@H]3CCC[C@H](O)C3)n2)c2ccccc21 (stereo partly drawn) [Example B-99, 2-(4,4-dimethyl-1,2,3,4-tetrahydronaphthalen-1-ylamino)-4-((1R,3S)-3-hydroxycyclohexylamino)pyrimidine-5-carboxamide]

Source: US12129237B2, “Substituted diaminocarboxamide and diaminocarbonitrile pyrimidines, compositions thereof, and methods of treatment therewith” (SIGNAL PHARMACEUTICALS, LLC, priority 2011, dated 2024)
